Sequences of proteins named here, by UniProt entry; tags and fusion partners are left off.
UniProt Q9P286, whole entry: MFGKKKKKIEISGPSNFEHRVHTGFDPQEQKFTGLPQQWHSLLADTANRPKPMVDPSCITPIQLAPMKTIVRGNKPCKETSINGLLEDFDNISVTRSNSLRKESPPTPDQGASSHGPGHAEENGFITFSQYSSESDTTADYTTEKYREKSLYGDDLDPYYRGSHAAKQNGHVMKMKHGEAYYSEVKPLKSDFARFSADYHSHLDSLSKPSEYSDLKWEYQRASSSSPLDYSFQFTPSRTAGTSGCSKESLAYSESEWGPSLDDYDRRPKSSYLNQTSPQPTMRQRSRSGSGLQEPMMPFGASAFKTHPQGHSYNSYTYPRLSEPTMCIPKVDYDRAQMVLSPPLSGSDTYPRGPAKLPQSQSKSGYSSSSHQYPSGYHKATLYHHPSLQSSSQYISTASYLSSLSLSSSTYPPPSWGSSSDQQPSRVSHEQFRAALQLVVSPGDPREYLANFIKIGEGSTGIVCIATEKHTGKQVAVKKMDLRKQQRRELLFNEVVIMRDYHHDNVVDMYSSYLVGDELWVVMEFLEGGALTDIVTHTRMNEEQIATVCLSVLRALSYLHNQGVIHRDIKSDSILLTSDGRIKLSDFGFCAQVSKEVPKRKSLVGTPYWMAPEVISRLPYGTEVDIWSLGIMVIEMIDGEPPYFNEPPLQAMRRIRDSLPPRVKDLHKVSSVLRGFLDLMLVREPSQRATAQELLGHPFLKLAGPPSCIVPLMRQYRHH
UniProt Q8N4C8, whole entry: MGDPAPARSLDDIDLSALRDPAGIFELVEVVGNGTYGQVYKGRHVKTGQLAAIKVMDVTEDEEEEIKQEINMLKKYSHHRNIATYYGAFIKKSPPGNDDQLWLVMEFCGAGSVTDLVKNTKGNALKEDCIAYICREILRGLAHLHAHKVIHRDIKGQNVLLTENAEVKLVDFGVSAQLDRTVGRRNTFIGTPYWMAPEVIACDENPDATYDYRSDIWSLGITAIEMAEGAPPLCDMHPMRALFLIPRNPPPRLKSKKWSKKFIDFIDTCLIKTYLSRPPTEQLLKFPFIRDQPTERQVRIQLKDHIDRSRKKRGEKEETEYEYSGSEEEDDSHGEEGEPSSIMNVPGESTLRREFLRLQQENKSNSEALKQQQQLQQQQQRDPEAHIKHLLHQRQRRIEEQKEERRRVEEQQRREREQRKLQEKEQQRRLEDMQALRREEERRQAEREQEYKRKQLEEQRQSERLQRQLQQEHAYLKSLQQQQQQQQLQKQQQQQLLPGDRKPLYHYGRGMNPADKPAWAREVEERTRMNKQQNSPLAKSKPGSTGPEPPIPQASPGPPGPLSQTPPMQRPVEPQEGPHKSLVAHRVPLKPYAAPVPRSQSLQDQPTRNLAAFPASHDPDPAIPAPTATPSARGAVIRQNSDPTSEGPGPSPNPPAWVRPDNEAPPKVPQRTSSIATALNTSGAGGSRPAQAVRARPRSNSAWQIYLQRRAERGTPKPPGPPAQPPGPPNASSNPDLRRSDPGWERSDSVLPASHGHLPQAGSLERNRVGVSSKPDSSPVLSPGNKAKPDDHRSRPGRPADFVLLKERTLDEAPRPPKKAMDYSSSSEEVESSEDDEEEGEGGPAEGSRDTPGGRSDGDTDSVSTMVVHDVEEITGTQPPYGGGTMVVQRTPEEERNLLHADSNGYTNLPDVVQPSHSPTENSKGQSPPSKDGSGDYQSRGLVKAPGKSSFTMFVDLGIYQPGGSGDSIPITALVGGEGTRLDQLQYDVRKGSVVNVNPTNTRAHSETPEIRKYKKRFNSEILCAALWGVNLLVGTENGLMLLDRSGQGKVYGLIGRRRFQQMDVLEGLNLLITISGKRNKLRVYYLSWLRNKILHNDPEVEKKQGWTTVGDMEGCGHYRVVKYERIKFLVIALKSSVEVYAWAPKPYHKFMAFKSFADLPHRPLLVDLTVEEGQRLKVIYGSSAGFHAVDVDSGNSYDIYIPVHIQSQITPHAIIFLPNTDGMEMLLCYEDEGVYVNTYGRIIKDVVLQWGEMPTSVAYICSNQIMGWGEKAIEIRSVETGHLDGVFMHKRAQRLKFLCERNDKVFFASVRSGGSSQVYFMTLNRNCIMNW
UniProt Q96RR4, whole entry: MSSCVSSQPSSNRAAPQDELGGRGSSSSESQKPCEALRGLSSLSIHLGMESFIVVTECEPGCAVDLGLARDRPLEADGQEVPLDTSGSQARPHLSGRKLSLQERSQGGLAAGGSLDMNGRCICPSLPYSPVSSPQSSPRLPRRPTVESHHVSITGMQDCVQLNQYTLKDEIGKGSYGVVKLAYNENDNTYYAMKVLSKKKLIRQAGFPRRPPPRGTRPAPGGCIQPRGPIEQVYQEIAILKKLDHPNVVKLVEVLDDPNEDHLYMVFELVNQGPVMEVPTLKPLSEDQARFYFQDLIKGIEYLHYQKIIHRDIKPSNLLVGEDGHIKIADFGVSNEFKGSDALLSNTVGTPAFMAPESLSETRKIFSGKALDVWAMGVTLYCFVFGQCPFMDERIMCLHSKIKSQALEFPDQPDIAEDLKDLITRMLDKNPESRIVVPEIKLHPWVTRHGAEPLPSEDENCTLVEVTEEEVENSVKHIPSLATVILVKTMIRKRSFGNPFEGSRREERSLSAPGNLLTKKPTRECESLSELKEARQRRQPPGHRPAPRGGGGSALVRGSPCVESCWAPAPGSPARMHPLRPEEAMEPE
UniProt Q8TD08, whole entry: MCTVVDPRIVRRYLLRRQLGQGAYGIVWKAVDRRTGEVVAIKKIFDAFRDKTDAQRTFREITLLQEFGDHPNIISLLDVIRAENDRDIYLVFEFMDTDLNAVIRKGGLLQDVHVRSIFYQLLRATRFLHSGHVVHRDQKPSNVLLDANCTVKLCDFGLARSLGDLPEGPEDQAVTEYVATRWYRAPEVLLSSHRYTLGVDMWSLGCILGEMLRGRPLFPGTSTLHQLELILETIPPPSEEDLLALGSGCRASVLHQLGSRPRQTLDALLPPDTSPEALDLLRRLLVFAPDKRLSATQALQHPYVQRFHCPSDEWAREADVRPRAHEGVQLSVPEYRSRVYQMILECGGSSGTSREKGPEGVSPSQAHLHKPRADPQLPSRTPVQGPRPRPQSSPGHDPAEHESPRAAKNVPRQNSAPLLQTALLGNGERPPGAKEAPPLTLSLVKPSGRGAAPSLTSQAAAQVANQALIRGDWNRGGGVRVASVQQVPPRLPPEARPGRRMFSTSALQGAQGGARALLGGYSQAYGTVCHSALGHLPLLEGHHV
UniProt Q16644, whole entry: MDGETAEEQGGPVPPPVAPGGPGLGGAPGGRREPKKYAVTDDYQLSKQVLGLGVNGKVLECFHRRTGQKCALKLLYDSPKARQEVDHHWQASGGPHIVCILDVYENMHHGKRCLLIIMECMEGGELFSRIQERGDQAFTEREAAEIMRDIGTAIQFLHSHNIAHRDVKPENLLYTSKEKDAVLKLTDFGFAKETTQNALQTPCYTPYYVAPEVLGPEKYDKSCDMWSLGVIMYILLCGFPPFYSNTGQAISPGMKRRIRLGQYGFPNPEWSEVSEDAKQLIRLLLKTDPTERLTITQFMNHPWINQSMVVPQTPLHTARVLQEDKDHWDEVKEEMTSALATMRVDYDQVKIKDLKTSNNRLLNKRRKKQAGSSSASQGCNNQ
UniProt O75116, whole entry: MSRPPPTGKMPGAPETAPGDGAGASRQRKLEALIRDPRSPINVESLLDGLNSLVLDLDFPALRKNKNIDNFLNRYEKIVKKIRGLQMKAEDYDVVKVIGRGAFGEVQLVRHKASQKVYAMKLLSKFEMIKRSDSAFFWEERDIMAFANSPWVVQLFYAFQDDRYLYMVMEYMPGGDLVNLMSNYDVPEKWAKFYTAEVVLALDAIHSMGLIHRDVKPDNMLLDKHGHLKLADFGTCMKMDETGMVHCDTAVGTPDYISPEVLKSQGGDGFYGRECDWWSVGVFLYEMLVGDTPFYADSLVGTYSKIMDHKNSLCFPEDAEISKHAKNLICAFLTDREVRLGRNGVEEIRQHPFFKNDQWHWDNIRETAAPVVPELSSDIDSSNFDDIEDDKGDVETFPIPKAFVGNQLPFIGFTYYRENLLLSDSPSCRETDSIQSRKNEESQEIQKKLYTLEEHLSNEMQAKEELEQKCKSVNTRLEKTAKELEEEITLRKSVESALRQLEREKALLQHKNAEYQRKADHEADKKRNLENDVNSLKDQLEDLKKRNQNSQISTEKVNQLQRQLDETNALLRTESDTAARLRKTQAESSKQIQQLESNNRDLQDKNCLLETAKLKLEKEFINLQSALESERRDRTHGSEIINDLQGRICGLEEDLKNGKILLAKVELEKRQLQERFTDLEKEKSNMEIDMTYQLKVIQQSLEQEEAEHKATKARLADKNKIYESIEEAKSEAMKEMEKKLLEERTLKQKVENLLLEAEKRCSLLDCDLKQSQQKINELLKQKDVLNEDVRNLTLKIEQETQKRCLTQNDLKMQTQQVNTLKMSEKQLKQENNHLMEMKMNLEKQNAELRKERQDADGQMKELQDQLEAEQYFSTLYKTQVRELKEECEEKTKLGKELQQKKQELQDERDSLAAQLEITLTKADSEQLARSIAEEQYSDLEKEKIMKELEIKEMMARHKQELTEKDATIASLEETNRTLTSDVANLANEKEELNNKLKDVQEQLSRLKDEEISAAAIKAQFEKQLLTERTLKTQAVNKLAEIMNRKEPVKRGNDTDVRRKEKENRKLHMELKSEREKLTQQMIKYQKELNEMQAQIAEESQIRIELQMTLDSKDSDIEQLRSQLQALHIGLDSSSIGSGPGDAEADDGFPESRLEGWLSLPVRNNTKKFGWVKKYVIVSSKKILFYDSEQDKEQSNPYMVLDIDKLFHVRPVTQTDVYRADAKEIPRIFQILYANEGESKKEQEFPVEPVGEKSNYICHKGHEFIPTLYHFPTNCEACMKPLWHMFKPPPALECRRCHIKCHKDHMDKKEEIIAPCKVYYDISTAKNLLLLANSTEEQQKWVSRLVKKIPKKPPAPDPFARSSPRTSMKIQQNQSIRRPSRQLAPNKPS
UniProt Q16584, whole entry: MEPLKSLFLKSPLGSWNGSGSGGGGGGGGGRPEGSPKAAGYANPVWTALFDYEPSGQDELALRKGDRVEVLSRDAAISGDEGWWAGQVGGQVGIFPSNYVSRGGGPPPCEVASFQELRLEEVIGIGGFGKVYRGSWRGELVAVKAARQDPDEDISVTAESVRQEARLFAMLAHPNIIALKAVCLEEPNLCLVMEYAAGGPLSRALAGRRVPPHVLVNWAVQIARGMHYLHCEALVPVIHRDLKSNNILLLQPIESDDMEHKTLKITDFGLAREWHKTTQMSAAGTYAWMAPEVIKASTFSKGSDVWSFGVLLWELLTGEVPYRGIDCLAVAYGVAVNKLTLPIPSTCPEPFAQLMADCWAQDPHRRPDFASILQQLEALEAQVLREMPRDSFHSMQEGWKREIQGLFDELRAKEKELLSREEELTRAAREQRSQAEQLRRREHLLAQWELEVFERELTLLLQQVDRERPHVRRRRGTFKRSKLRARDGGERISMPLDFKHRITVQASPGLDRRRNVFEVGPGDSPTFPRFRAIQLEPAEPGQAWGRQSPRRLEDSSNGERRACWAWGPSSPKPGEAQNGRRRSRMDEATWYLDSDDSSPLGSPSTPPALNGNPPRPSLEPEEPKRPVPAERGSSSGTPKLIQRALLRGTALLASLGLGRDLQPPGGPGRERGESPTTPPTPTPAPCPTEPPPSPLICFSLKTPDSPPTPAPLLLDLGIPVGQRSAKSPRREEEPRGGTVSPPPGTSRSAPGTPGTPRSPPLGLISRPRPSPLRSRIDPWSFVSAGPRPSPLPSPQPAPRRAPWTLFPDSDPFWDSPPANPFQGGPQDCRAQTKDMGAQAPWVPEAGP
UniProt Q9HC98, whole entry: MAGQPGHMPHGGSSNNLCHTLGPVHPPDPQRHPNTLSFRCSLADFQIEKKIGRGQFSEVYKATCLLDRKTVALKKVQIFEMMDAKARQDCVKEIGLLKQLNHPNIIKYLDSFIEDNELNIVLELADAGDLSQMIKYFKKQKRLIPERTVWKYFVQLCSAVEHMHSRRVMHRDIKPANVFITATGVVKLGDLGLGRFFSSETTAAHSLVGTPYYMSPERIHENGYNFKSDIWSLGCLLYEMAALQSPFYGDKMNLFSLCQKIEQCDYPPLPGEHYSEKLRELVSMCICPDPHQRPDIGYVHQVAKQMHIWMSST
UniProt P41240, whole entry: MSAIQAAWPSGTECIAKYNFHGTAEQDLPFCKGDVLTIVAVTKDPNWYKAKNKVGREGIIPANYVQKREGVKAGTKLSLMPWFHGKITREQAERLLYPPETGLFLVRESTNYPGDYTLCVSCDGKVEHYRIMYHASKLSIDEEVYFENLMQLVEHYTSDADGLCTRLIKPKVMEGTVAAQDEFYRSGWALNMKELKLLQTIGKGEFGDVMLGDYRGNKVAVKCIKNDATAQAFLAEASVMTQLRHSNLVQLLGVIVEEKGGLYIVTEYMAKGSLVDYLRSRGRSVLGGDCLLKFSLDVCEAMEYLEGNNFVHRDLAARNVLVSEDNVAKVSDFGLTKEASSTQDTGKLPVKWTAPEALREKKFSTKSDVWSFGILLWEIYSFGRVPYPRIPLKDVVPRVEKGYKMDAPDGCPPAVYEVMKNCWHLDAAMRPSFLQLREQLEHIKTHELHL

In article PMC4577729, “7-(Pyrazol-4-yl)-3H-imidazo[4,5-b]pyridine-based derivatives for kinase inhibition: Co-crystallisation studies with Aurora-A reveal distinct differences in the orientation of the pyrazole N1-substituent” (Bioorganic & Medicinal Chemistry Letters, 2015):

How the values were obtained:
SmMLCK = SmMLCK (Homo sapiens, UniProt Q15746); assay: Kinase selectivity profiling; conditions: 1 µM, assay duplicates
Aurora B = Aurora B (Homo sapiens, UniProt Q96GD4); assay: Aurora-B microfluidic kinase assay; conditions: read-out: Aurora-B IC50; biochemical; mean of two determinations or mean ±SD for n > 2
[1] = test system: HCT116 human colon carcinoma cells; assay: HCT116 cell growth inhibition; conditions: read-out: GI50 HCT116, 72 h incubation
EPH-B3 = EPH-B3 (Homo sapiens, UniProt P54753); assay: Kinase selectivity profiling; type: biochemical; conditions: 1 µM, assay duplicates
Experimental: (§1) [20] Kinase selectivity profiling for compounds 7a, 7d, 14d and 14g was carried out at the International Centre for Protein Kinase Profiling, Division of Signal Transduction Therapy, University of Dundee.
(§2) Table S1: Kinase selectivity profiling of compounds 7a and 7d in a 102-kinase panel screened at a concentration of 1 µM.
(§3) Table S2: Kinase selectivity profiling of compounds 14d and 14g in a 105-kinase panel screened at a concentration of 1 µM.

MARK3 = MARK3 (Homo sapiens, UniProt P27448); assay: Kinase selectivity profiling; type: biochemical; conditions: 1 µM, assay duplicates
Experimental: as §1, §2, §3

CHK2 = CHK2 (Homo sapiens, UniProt O96017); assay: Kinase selectivity profiling; type: biochemical; conditions: 1 µM, assay duplicates
Experimental: as §1, §2, §3

DYRK3 = DYRK3 (Homo sapiens, UniProt O43781); assay: Kinase selectivity profiling; type: biochemical; conditions: 1 µM, assay duplicates
Experimental: as §1, §2, §3

SYK = SYK (Homo sapiens, UniProt P43405); assay: Kinase selectivity profiling; type: biochemical; conditions: 1 µM, assay duplicates
Experimental: as §1, §2, §3

PAK5 = PAK5 (Homo sapiens, UniProt Q9P286); assay: Kinase selectivity profiling; type: biochemical; conditions: 1 µM, assay duplicates
Experimental: as §1, §2, §3

MINK1 = MINK1 (Homo sapiens, UniProt Q8N4C8); assay: Kinase selectivity profiling; type: biochemical; conditions: 1 µM, assay duplicates
Experimental: as §1, §2, §3

PKCa = PKCa (Homo sapiens, UniProt P17252); assay: Kinase selectivity profiling; type: biochemical; conditions: 1 µM, assay duplicates
Experimental: as §1, §2, §3

JAK2 = JAK2 (Homo sapiens, UniProt O60674); assay: Kinase selectivity profiling; type: biochemical
Experimental: as §1, §2, §3

CAMKKb = CAMKKb (Homo sapiens, UniProt Q96RR4); assay: Kinase selectivity profiling; type: biochemical; conditions: 1 µM, assay duplicates
Experimental: as §1, §2, §3

ERK8 = ERK8 (Homo sapiens, UniProt Q8TD08); assay: Kinase selectivity profiling; type: biochemical
Experimental: as §1, §2, §3

IRAK4 = IRAK4 (Homo sapiens, UniProt Q9NWZ3); assay: Kinase selectivity profiling; type: biochemical; conditions: 1 µM, assay duplicates
Experimental: as §1, §2, §3

MAPKAP-K3 = MAPKAP-K3 (Homo sapiens, UniProt Q16644); assay: Kinase selectivity profiling; type: biochemical; conditions: 1 µM, assay duplicates
Experimental: as §1, §2, §3

ERK2 = ERK2 (Homo sapiens, UniProt P28482); assay: Kinase selectivity profiling; type: biochemical; conditions: 1 µM, assay duplicates
Experimental: as §1, §2, §3

Src = Src (Homo sapiens, UniProt P12931); assay: Kinase selectivity profiling; type: biochemical; conditions: 1 µM, assay duplicates
Experimental: as §1, §2, §3

TrkA = TrkA (Homo sapiens, UniProt P04629); assay: Kinase selectivity profiling; type: biochemical
Experimental: as §1, §2, §3

MST2 = MST2 (Homo sapiens, UniProt Q13188); assay: Kinase selectivity profiling; type: biochemical; conditions: 1 µM, assay duplicates
Experimental: as §1, §2, §3

RSK2 = RSK2 (Homo sapiens, UniProt P51812); assay: Kinase selectivity profiling; type: biochemical; conditions: 1 µM, assay duplicates
Experimental: as §1, §2, §3

ROCK 2 = ROCK 2 (Homo sapiens, UniProt O75116); assay: Kinase selectivity profiling; type: biochemical; conditions: 1 µM, assay duplicates
Experimental: as §1, §2, §3

DYRK2 = DYRK2 (Homo sapiens, UniProt Q92630); assay: Kinase selectivity profiling; type: biochemical; conditions: 1 µM, assay duplicates
Experimental: as §1, §2, §3

PIM2 = PIM2 (Homo sapiens, UniProt Q9P1W9); assay: Kinase selectivity profiling; type: biochemical; conditions: 1 µM, assay duplicates
Experimental: as §1, §2, §3

MST4 = MST4 (Homo sapiens, UniProt Q9P289); assay: Kinase selectivity profiling; type: biochemical; conditions: 1 µM, assay duplicates
Experimental: as §1, §2, §3

CK1 = CK1 (Homo sapiens, UniProt P48730); assay: Kinase selectivity profiling; type: biochemical; conditions: 1 µM, assay duplicates
Experimental: as §1, §2, §3

PAK2 = PAK2 (Homo sapiens, UniProt Q13177); assay: Kinase selectivity profiling; type: biochemical; conditions: 1 µM, assay duplicates
Experimental: as §1, §2, §3

PHK = PHK (Homo sapiens, UniProt Q16816); assay: Kinase selectivity profiling; type: biochemical; conditions: 1 µM, assay duplicates
Experimental: as §1, §2, §3

EPH-A2 = EPH-A2 (Homo sapiens, UniProt P29317); assay: Kinase selectivity profiling; type: biochemical; conditions: 1 µM, assay duplicates
Experimental: as §1, §2, §3

MKK1 = MKK1 (Homo sapiens, UniProt Q02750); assay: Kinase selectivity profiling; type: biochemical; conditions: 1 µM, assay duplicates
Experimental: as §1, §2, §3

PKBb = PKBb (Homo sapiens, UniProt P31751); assay: Kinase selectivity profiling; type: biochemical; conditions: 1 µM, assay duplicates
Experimental: as §1, §2, §3

RIPK2 = RIPK2 (Homo sapiens, UniProt O43353); assay: Kinase selectivity profiling; type: biochemical; conditions: 1 µM, assay duplicates
Experimental: as §1, §2, §3

ERK1 = ERK1 (Homo sapiens, UniProt P27361); assay: Kinase selectivity profiling; type: biochemical; conditions: 1 µM, assay duplicates
Experimental: as §1, §2, §3

PKA = PKA (Homo sapiens, UniProt P17612); assay: Kinase selectivity profiling; type: biochemical; conditions: 1 µM, assay duplicates
Experimental: as §1, §2, §3

Aurora A = Aurora A (Homo sapiens, UniProt O14965); assay: Kinase selectivity profiling; type: biochemical; conditions: 1 µM, assay duplicates
Experimental: as §1, §2, §3

IGF-1R = IGF-1R (Homo sapiens, UniProt P08069); assay: Kinase selectivity profiling; type: biochemical; conditions: 1 µM, assay duplicates
Experimental: as §1, §2, §3

MLK3 = MLK3 (Homo sapiens, UniProt Q16584); assay: Kinase selectivity profiling; type: biochemical; conditions: 1 µM, assay duplicates
Experimental: as §1, §2, §3

NEK6 = NEK6 (Homo sapiens, UniProt Q9HC98); assay: Kinase selectivity profiling; type: biochemical; conditions: 1 µM, assay duplicates
Experimental: as §1, §2, §3

p38a MAPK = p38a MAPK (Homo sapiens, UniProt Q16539); assay: Kinase selectivity profiling; type: biochemical; conditions: 1 µM, assay duplicates
Experimental: as §1, §2, §3

CSK = CSK (Homo sapiens, UniProt P41240); assay: Kinase selectivity profiling; type: biochemical; conditions: 1 µM, assay duplicates
Experimental: as §1, §2, §3

PAK4 = PAK4 (Homo sapiens, UniProt O96013); assay: Kinase selectivity profiling; type: biochemical; conditions: 1 µM, assay duplicates
Experimental: as §1, §2, §3

NUAK1 = NUAK1 (Homo sapiens, UniProt O60285); assay: Kinase selectivity profiling; type: biochemical; conditions: 1 µM, assay duplicates
Experimental: as §1, §2, §3

In the case of `CNCc1cccc(Cn2cc(-c3c(Cl)cnc4[nH]c(-c5cn(C)nc5C)nc34)cn2)c1`, the “SmMLCK % activity remaining” value (SmMLCK) is reported as 68%, the IC50 (Aurora B) is reported as 0.032 µM and the GI50 [1] is reported as 0.23 µM. For the same compound, the “EPH-B3 % activity remaining” value (EPH-B3) was 39%, the “MARK3 % activity remaining” value (MARK3) was 44% and the “CHK2 % activity remaining” value (CHK2) was 25%. The “DYRK3 % activity remaining” value (DYRK3) was 36%, the “SYK % activity remaining” value (SYK) was 30% and the “PAK5 % activity remaining” value (PAK5) was 48%. The “MINK1 % activity remaining” value (MINK1) was 56%, the “PKCa % activity remaining” value (PKCa) was 45% and the JAK2 inhibition (JAK2; 1 μM) was at least 80%. For the same compound, the “JAK2 % activity remaining” value (JAK2; 1 µM, assay duplicates) was 4%, the “CAMKKb % activity remaining” value (CAMKKb) was 51% and the ERK8 inhibition (ERK8; 1 μM) was at least 80%. The “ERK8 % activity remaining” value (ERK8; 1 µM, assay duplicates) was 1%, the “IRAK4 % activity remaining” value (IRAK4) was 47% and the “MAPKAP-K3 % activity remaining” value (MAPKAP-K3) was 95%. The “ERK2 % activity remaining” value (ERK2) was 18%, the “Src % activity remaining” value (Src) was 4% and the TrkA inhibition (TrkA; 1 μM) was at least 80%. For the same compound, the “TrkA % activity remaining” value (TrkA; 1 µM, assay duplicates) was 8%, the “MST2 % activity remaining” value (MST2) was 80% and the “RSK2 % activity remaining” value (RSK2) was 10%. The “ROCK 2 % activity remaining” value (ROCK 2) was 32%, the “DYRK2 % activity remaining” value (DYRK2) was 58% and the “PIM2 % activity remaining” value (PIM2) was 80%. The “MST4 % activity remaining” value (MST4) was 50%, the “CK1 % activity remaining” value (CK1) was 49% and the “PAK2 % activity remaining” value (PAK2) was 80%. For the same compound, the “PHK % activity remaining” value (PHK) was 19%, the “EPH-A2 % activity remaining” value (EPH-A2) was 47% and the “MKK1 % activity remaining” value (MKK1) was 39%. For the same compound, the “PKBb % activity remaining” value (PKBb) was 70%, the “RIPK2 % activity remaining” value (RIPK2) was 68% and the “ERK1 % activity remaining” value (ERK1) was 38%. The “PKA % activity remaining” value (PKA) was 42%, the “Aurora A % activity remaining” value (Aurora A) was 1% and the “IGF-1R % activity remaining” value (IGF-1R) was 3%. For the same compound, the “MLK3 % activity remaining” value (MLK3) was 4%, the “NEK6 % activity remaining” value (NEK6) was 80% and the “p38a MAPK % activity remaining” value (p38a MAPK) was 94%. The “CSK % activity remaining” value (CSK) was 62%, the “PAK4 % activity remaining” value (PAK4) was 51% and the “NUAK1 % activity remaining” value (NUAK1) was 8%.
